Reference: US6492416B1, “4,5-diaryl-3(2H)-furanone derivatives as cyclooxygenase-2 inhibitors” (Pacific Corporation, priority 1999, dated 2002)

By UniProt entry, the sequences of proteins in these tests, tags left out. Residues count along the entry.
UniProt Q05769, 18-604 limits assumed: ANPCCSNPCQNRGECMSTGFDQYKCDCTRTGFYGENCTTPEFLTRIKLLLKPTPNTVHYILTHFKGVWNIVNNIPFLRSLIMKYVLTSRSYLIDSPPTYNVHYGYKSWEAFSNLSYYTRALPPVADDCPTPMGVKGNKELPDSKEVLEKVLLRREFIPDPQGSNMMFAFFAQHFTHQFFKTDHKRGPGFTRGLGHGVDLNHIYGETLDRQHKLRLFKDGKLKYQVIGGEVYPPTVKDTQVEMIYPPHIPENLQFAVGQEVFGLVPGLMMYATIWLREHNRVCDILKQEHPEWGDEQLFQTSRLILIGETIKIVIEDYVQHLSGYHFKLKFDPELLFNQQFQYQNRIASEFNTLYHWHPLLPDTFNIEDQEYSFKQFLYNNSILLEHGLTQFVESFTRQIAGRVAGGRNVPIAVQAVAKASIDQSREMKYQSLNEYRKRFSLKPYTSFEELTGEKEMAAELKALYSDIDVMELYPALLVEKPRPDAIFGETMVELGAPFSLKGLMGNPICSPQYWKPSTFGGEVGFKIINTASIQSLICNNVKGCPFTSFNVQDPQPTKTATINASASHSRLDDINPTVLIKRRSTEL
UniProt P22437, 27-602 limits assumed: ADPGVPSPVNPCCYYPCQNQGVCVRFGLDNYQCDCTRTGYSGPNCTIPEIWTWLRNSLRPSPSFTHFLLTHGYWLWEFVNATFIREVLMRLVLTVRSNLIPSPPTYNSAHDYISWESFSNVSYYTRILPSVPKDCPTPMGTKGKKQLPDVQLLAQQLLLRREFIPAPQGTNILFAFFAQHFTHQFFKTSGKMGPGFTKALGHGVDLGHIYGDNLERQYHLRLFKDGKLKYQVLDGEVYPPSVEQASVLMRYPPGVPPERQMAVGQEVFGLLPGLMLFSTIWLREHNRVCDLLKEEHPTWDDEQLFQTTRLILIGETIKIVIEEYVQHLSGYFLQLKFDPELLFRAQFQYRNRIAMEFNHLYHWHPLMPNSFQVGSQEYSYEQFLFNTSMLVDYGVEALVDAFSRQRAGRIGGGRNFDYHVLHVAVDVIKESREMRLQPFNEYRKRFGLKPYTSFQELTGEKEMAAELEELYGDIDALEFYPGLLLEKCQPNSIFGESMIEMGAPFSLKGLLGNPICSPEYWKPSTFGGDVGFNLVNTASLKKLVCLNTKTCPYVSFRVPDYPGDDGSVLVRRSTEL

What was measured:
COX-2 = COX-2 (Mus musculus, UniProt Q05769); assay: Evaluation of COX-2 activity: PGE2 formation in aspirin-treated, LPS-stimulated mouse peritoneal macrophages
COX-1 = COX-1 (Mus musculus, UniProt P22437); assay: Evaluation of COX-1 activity: PGE2 formation in mouse peritoneal macrophages without aspirin and LPS treatment

CC1(C)OC(c2ccc(S(C)(=O)=O)cc2)=C(c2ccc(C=O)o2)C1=O
IC50, μg/ml COX-2 (COX-2): 0.3 µg/mL (≈ 0.832 µM)
IC50, μg/ml COX-1 (COX-1): 50 µg/mL (≈ 139 µM)

In brackets after ≈: the same amount, converted by molar mass.
